Laboratory results reported in patent US12595267B2, “Preparation method for amide compound and application thereof in field of medicine” (Shanghai Synergy Pharmaceutical Sciences Co., Ltd., priority 2019, dated 2026).
Each block holds one molecule with its values, some of them ahead of it.

Chains of the proteins cited; added tags and fusions are not shown.
UniProt Q15910, whole entry A677G: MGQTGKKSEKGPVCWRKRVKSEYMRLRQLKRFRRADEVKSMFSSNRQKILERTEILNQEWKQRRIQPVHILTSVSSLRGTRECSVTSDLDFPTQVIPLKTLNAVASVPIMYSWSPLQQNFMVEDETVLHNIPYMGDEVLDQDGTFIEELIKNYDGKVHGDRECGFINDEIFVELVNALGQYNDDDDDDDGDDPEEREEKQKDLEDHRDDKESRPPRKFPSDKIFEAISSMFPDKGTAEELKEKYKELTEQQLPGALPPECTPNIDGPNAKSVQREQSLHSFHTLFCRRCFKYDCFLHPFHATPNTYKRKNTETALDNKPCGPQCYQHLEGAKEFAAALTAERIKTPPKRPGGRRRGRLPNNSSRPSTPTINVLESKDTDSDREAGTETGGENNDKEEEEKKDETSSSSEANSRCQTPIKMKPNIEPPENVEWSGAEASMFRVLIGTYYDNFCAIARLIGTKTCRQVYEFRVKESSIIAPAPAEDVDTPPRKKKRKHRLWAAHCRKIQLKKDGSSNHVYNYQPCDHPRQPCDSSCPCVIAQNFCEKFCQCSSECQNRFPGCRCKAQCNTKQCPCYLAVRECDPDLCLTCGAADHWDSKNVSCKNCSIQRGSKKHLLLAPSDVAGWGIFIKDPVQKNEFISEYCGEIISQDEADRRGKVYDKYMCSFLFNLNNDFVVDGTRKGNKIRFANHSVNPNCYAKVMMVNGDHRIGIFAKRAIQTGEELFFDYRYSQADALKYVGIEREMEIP
UniProt Q15910, whole entry Y641F: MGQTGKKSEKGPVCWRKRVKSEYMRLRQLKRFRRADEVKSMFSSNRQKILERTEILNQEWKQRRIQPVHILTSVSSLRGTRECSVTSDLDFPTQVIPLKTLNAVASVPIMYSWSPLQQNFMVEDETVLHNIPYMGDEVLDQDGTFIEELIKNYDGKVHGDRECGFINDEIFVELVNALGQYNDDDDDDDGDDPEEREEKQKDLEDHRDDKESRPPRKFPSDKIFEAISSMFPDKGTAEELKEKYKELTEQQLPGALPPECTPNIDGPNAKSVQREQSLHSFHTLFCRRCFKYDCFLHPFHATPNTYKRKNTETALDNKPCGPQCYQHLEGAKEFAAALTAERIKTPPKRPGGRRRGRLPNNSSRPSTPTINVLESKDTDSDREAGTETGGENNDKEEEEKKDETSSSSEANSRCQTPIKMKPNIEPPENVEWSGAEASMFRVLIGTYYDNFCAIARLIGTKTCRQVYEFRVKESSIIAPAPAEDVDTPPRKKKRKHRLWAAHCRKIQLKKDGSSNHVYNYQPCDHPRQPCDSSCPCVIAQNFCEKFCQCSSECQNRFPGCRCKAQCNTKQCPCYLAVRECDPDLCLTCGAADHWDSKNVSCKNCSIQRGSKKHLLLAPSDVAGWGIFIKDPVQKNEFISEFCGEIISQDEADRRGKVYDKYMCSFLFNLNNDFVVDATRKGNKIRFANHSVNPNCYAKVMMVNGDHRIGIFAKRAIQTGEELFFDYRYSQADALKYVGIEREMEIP
UniProt Q15910, whole entry Y641N: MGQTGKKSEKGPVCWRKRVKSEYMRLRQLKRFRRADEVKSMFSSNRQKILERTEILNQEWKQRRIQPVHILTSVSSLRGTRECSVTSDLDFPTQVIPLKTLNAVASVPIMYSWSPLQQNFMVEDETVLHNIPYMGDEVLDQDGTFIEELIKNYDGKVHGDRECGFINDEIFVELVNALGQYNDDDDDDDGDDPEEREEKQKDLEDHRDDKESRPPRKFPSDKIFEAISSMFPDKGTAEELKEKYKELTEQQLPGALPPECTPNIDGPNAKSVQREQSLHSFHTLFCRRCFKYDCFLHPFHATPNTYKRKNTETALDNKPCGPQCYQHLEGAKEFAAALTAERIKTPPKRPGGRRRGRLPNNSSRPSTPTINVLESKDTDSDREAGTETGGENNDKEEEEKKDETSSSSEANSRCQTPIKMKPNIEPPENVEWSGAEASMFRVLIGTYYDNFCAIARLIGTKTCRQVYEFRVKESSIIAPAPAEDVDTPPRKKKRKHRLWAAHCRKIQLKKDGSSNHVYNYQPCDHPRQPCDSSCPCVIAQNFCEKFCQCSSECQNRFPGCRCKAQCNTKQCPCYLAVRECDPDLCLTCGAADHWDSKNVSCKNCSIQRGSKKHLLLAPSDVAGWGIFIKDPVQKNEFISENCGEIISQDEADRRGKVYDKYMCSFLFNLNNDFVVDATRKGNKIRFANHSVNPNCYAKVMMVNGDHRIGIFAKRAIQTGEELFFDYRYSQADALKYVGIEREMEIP

Experiments:
[1] = molecular target: T1, Mutant EZH2 (A677G) (Homo sapiens, UniProt Q15910, A677G); test: AlphaLISA assay on mutant PRC2 complex, EZH2 A677G; assay type: biochemical
T1 construct: purchased BPS 51004

[2] = molecular target: T2, Mutant EZH2 (Y641F) (Homo sapiens, UniProt Q15910, Y641F); test: AlphaLISA assay on mutant PRC2 complex, EZH2 Y641F; assay type: biochemical
T2 construct: purchased BPS 51004

[3] = test system: Pfeiffer cells; test: Calcein AM proliferation assay, Pfeiffer cells; assay type: cell-based; conditions: Homo sapiens, day 14 data, Calcein AM staining
[4] = molecular target: T3, Mutant EZH2 (Y641N) (Homo sapiens, UniProt Q15910, Y641N); test: AlphaLISA assay on mutant PRC2 complex, EZH2 Y641N; assay type: biochemical
T3 construct: purchased BPS 51004

Structure (SMILES): CCN(c1cc(-c2ccc3c(c2)CCC3N2CCOCC2)cc(C(=O)NCc2c(C)cc(C)[nH]c2=O)c1C)C1CC(C)OC(C)C1 (centres unmarked) [Compound 13, N-((4,6-dimethyl-2-oxo-1,2-dihydropyridin-3-yl)methyl)-3-((2,6-dimethyltetrahydro-2H-pyran-4-yl)(ethyl)amino)-2-methyl-5-(1-morpholino-2,3-di hydro-1H-inden-5-yl)benzamide]
- IC50 [1]: 0.46 nM

- IC50 [2]: 0.75 nM
Structure (SMILES): CCN(c1cc(-c2cc3c(cc2F)C(N2CCOCC2)CC3)c(F)c(C(=O)NCc2c(C)cc(C)[nH]c2=O)c1C)C1CCOCC1 (centres unmarked) [Compound 28]

Structure (SMILES): CCN(c1cc(-c2ccc(C3(C(=O)O)CCOCC3)cc2)cc(C(=O)NCc2c(C)cc(C)[nH]c2=O)c1C)C1CCOCC1 [Compound 2, 4-(3′-(((4,6-dimethyl-2-carbonyl-1,2-dihydropyridin-3-yl)methyl)carbamoyl)-5′-(ethyl(tetrahydro-2H-pyran-4-yl)amino)-4′-methyl-[1,1′-biphenyl]-4-yl)tetrahydro-2H-pyran-4-carboxylic Acid]
- IC50 [3]: 0.75 nM

- IC50 [4]: 0.46 nM
- IC50 [2]: 0.75 nM
Structure (SMILES): CCN(c1cc(-c2cc3c(cc2F)C(N2CCOCC2)CC3)cc(C(=O)NCc2c(C)cc(C)[nH]c2=O)c1C)C1CCOCC1 (centres unmarked) [Compound 24]
